This is an account of results in PubChem BioAssay AID504690 (Sanford-Burnham Center for Chemical Genomics, 2011).

The entries are a selection whose mix differs from that of the whole data set. Active and inactive are the calls of the source.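 The calls were made as follows: active = inhibition reaching at least a set limit at 20 µM in the primary screen (cut at about 59% in these data); inactive = the rest.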

For this experiment, the system named is glucose-6-phosphate dehydrogenase-6-phosphogluconolactonase (Plasmodium falciparum 3D7). Nature of the experiment: inhibition of malaria parasite G6PD (PfGluPho) – biochemical, fluorescence intensity, uHTS, primary screen (AID 504690).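 Also: 0% = DMSO wells with substrate and 100% = DMSO wells lacking glucose-6-phosphate.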 The note with it: PfGluPho enzyme, NADPH resazurin-diaphorase fluorescence; at 20 µM; hits give high values.
For `CCC(=O)N(c1ccccc1)C1(COC)CCN(CCc2cccs2)CC1`, the inhibition (usually the relative decrease from the control value, in per cent) is inactive: 4.72%.
Then `CCC(=O)N(c1ccccc1)C1(COC)CCN(CCn2nnn(CC)c2=O)CC1`, with inactive: 17.1%.
